Assays:
Assay type in all cases: cell-based
hSTING R232 [1] = target: T1, hSTING R232 (Homo sapiens, UniProt Q86WV6, H232R); assay: 293T-Dual hSTING R232 cells, IRF activation (Quanti-Blue); conditions: 293T-Dual hSTING R232 cell line, 24 h, OD 620 nm
T1 construct: host or cells: 293T-Dual hSTING R232 cells
Experimental: (§1) A test compound with a serial of dilution was prepared in complete medium, and 50 μL of the compound were added to the corresponding well, and incubated with the cells at 37° C. incubator for 24 hr.
To determine the effect on interferon regulatory factor (IRF) activation, 20 μL of cell culture supernatant was transferred into a fresh 96-well plate, 150 μL of Quanti-Blue was added to each well and incubated at 37° C. for 25 min. OD at 620 nm was recorded, and EC50 was calculated with 4 parameter logistic equation.

Amino acid sequences for entries named in this document (tags omitted).
UniProt Q86WV6, whole entry H232R: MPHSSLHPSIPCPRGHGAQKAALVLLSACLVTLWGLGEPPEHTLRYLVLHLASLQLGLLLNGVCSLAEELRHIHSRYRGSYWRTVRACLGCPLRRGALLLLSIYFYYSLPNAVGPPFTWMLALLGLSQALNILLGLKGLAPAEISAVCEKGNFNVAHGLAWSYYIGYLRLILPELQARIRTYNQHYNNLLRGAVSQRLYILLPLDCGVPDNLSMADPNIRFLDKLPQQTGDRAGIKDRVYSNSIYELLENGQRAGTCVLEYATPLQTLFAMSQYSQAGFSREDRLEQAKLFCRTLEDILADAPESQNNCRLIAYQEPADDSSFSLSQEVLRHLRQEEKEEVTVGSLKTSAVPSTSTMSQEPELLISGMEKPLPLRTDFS
UniProt Q86WV6, whole entry R71H/G230A/H232R/R293Q: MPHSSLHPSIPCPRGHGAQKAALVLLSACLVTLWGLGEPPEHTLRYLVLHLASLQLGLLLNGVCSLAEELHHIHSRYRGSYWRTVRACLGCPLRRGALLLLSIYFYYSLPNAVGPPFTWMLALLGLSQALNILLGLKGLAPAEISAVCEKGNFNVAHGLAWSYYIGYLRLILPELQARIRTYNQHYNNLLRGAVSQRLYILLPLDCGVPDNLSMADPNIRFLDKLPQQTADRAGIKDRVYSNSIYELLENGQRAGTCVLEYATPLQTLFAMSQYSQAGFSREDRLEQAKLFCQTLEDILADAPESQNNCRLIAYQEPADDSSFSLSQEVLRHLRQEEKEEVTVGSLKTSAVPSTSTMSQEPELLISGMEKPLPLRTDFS

Human STING [2] = target: T2, Human STING (Homo sapiens, UniProt Q86WV6, G230A/H232R/R293Q/R71H); assay: EC50 in THP1-Dual cells, IRF3 reporter (QUANTI-Luc); conditions: THP1 cell line, 24 h
T2 construct: host or cells: THP1-Dual cells (human monocytic reporter line)
Experimental: (§2) THP1-Dual cells (obtained from Invivogen) are maintained in RPM11640 medium with 100 µg/ml of Zeocin and 10 µg/ml of blasticidin at 37° C., 5% CO2, compounds were dissolved in sterile PBS (pH7.4) as 20 mM, 0.5×10^6 cells/ml of THP-1 Dual cells were incubated with indicated concentrations of a compound for 24 hours at 37° C., 5% CO2 incubator. QUANTI-Luc and QUANTI-Blue were prepared and used following the manufacturer's instructions. 10 ul of cell culture supernatant were mixed with QUANTI-Luc and immediately measured using Luminometer; 20 ul of supernatant were mixed with QUANTI-Blue, and incubated at 37° C. for 30 minutes, and read at OD620. EC50 was calculated using Prism with 4-parameter dose-response curve fitting (Table 3).

Human STING [3] = target: T2, Human STING; assay: EC50 in THP1-Dual cells, NF-kB reporter (QUANTI-Blue); conditions: ECs50 NF-kB, THP1 cell line, 24 h, OD620
Experimental: as §2

hSTING R232 [4] = target: T1, hSTING R232; assay: 293T-Dual hSTING R232 cells, interferon-β expression (Quanti-Luc); conditions: 293T-Dual hSTING R232 cell line, 24 h, read-out: IFNb EC50
Experimental: as §1
To evaluate the effect on interferon-β expression, 20 μL of cell culture supernatant were transferred into a fresh 96-half area-well white plate, 30 μL of Quanti-Luc were added to each well, and luminescence was measured immediately with a luminometer. Four parameter logistic equation was used to calculate EC50 (Table 4).

BP1(=O)OC[C@H]2O[C@@H](n3cnc4c(N)ncnc43)[C@H](F)C2OP(=O)(O)OC[C@H]2O[C@@H](n3cnc4c(N)ncnc43)[C@H](F)[C@@H]2O1 (single isomer, unassigned) [Compound E2]
EC50 (hSTING R232 [1]): 1060 nM
EC50 (Human STING [2]): 800 nM
EC50 (Human STING [3]): 7.96 µM
EC50 (hSTING R232 [4]): 1630 nM

BP1(=O)OC[C@H]2O[C@@H](n3cnc4c(N)ncnc43)[C@H](F)C2OP(=O)(O)OC[C@H]2O[C@@H](n3cnc4c(N)ncnc43)[C@H](F)[C@@H]2O1 (single isomer, unassigned) [Compound E1]
EC50 (hSTING R232 [1]): 530 nM
EC50 (Human STING [2]): 480 nM
EC50 (Human STING [3]): 2.55 µM
EC50 (hSTING R232 [4]): 700 nM

— patent US11773132B2, “Cyclic di-nucleotides as stimulator of interferon genes modulators” (Beijing Xuanyi PharmaSciences Co., Ltd., priority 2017, dated 2023)
